The values below come from patent US20250346600A1, “TRICYCLIC DERIVATIVES AND RELATED USES” (MOMA Therapeutics, Inc., priority 2023, published 2025).

By UniProt entry, the sequences of proteins in these tests, tags left out. Residues count along the entry.
UniProt Q14191, 2-1432: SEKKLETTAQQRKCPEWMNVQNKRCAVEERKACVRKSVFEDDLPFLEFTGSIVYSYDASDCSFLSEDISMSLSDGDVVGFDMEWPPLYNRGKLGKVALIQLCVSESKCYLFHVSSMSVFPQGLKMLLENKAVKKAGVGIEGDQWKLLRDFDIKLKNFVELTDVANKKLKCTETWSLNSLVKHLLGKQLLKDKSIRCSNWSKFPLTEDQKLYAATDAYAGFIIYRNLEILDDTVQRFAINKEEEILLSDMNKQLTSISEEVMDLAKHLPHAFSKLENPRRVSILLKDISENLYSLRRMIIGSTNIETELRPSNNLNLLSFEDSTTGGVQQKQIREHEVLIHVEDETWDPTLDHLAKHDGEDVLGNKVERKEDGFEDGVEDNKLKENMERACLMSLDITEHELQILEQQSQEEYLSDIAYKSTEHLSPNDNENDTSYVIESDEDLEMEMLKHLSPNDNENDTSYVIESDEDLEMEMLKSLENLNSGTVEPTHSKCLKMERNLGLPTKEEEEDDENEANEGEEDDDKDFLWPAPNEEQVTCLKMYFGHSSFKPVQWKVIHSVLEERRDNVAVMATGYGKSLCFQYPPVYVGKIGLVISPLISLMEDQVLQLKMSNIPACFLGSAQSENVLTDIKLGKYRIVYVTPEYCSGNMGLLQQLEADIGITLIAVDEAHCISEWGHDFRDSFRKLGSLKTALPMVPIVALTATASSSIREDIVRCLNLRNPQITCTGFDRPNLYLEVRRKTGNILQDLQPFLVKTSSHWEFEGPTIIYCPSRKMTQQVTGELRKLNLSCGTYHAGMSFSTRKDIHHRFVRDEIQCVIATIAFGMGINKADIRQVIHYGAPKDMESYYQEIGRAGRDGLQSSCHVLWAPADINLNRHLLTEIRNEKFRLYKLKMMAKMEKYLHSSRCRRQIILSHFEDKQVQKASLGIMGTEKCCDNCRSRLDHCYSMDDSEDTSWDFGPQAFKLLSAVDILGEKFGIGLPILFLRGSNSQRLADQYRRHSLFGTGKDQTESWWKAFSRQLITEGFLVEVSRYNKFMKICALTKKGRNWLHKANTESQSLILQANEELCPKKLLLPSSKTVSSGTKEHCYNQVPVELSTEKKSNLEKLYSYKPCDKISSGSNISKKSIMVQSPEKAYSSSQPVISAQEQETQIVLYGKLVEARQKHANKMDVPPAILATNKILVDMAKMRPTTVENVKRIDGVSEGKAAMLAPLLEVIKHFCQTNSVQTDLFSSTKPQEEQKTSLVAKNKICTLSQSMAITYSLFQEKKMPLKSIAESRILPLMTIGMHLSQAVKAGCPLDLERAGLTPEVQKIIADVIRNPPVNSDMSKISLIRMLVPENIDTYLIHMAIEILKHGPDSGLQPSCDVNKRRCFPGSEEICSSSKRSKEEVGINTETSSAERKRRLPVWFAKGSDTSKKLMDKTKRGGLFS

Assay [1] has as its target T1, Full length WRN protein (aa 2-1432) (Homo sapiens (Human), UniProt Q14191). In words: WRN ATPase ADP-Glo biochemical assay, Assay Format A (10 μM ATP). The settings on record: 0.25 nM WRN, 100 nM C6.18 ssDNA, 30 min preincubation, read-out: ATPase ADPGlo AC50 (uM)- Assay Format A. The source says:
Full length Werner helicase construct (Uniprot: Q14191) with an N-terminal FLAG-AVI-TEV tag was expressed using the Sf9 cell/baculovirus expression system. The harvested cell pellet was resuspended and lysed in a glass homogenizer. After insoluble material was removed by centrifugation, the helicase protein was first purified with FLAG affinity resin and then further purified through a size-exclusion chromatography column. Peak fractions containing the purified protein were concentrated, split into aliquots and frozen in liquid nitrogen to be thawed before use. Biochemical Assay Description (ATPase activity)-Assay Format A WRN activity was measured using an ATPase assay. Full length WRN protein (aa 2-1432) (production described separately) was used for the biochemical activity assays. The 39-mer ssDNA “C6.18” [NT] was purchased from IDT and used as a substrate. Quantification of ATP hydrolysis was evaluated using the ADP-Glo assay kit (Promega, Madison, WI). An enzyme titration time-course was performed to determine the optimal assay conditions. […] To evaluate the inhibitory effects of the compounds, 11-point 3-fold serial dilutions were prepared in DMSO. […] Lastly, 20 μL ATP detection reagent was added and incubated for 1 hour to generate the luminescence signal. […] Luminescence was recorded on a PHERAstar (BMG Labtech, Ortenberg, Germany). […]
In general terms: ADP-Glo turns the ADP formed in a reaction into a luminescent signal.

The target in assay [2] is T1, Full length WRN protein (aa 2-1432). Kind of assay: WRN ATPase ADP-Glo biochemical assay, Assay Format B (100 μM ATP). The settings on record: 0.25 nM WRN, 100 nM C6.18 ssDNA, 60 min preincubation, read-out: ATPase ADPGlo AC50 (uM)- Assay Format B.

A value given as a limit tells only on which side of the number the result lay.

In general, AC50 refers to the midpoint of the concentration-response curve, whichever way the signal moves. As for “1-(5-(7-bromo-1H- benzo[d]imidazole-4- carbonyl)-2-(4- cyclobutylphenyl)- 2,3,4,5,5a,6-hexahydro- 1,2,5,7- tetraazaspiro[benzo[cd] azulene-9,1′- cyclopropan]-1(9a),2a- dien-7(8H)-yl)prop-2-en- 1-one [Compound 169]”, the AC50 in assay [1] is under 0.0015 µM; in assay [2] it was 0.015 to 0.055 µM.
